Read-outs that look alike come from different tables or passages of the source. Values belong to the compound of their own block, whether it stands above or below them.
How the values were obtained:
Assay in all cases: biochemical
[1] = target: T1, GKRP (Glucokinase Regulatory Protein) with human His-hepatic GK (Homo sapiens, UniProt Q14397); settings: 13C-glucose-6-phosphate formation; 280 nM GKRP (10×), 30 nM GK (5×); read-out: GK-GKRP EC50 (LC MS/MS-2)
T1 sequence (Q14397 1-625): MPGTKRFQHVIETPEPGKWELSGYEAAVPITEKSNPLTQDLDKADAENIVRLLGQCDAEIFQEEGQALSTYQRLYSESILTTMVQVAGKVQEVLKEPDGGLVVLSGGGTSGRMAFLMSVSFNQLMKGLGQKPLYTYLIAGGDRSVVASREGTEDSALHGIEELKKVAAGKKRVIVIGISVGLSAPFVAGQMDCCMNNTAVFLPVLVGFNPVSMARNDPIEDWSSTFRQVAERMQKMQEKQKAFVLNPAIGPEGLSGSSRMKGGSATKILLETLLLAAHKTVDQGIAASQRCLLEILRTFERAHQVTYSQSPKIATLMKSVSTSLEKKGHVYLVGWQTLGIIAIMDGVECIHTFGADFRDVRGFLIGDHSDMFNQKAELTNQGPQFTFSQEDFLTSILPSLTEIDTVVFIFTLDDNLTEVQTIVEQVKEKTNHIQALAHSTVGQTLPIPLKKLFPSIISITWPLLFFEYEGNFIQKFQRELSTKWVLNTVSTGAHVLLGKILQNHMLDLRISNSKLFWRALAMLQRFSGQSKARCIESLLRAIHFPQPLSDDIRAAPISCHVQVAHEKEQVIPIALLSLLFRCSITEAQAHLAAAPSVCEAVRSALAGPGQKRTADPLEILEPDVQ

[2] = target: T2, interaction between glucokinase (GK) and glucokinase regulatory protein (GKRP) (Homo sapiens, UniProt Q14397); type: binding; settings: avi-tagged GKRP, GK-fluorescein, AlphaScreen beads
T2 sequence (Q14397 1-625): T1 sequence (Q14397 1-625)

GK-GKRP [3] = target: T3, GK-GKRP (Homo sapiens, UniProt Q14397); settings: GK-GKRP IC50 (Binding)
T3 sequence (Q14397 1-625): T1 sequence (Q14397 1-625)

GK-GKRP [4] = target: T3, GK-GKRP
[5] = read-out: GK-GKRP IC50 (Binding)

SMILES: Nc1ncc(S(=O)(=O)N2CCN(c3ccc(C(O)(C(F)(F)F)C(F)(F)F)cc3)CC2)cn1 [Example 96, 2-(4-(4-((2-amino-5-pyrimidinyl)sulfonyl)-1-piperazinyl)phenyl)-1,1,1,3,3,3-hexafluoro-2-propanol]
EC50 [1]: 518 nM

SMILES: O=S(=O)(c1cscc1Br)N1CCN(c2ccc(C(O)(C(F)(F)F)C(F)(F)F)cc2)CC1 [Example 169, 2-(4-(4-(4-bromothiophen-3-ylsulfonyl)piperazin-1-yl)phenyl)-1,1,1,3,3,3-hexafluoro-2-propanol]
IC50 [2, 5]: 816 nM

SMILES: Nc1ccc(S(=O)(=O)N2CCN(c3ccc(C(O)(C(F)(F)F)C(F)(F)F)cc3)CC2)cc1F [Example 104, 2-(4-(4-((4-amino-3-fluorophenyl)sulfonyl)-1-piperazinyl)phenyl)-1,1,1,3,3,3-hexafluoro-2-propanol]
IC50 ([2]; GK-GKRP IC50 (Binding)): 999 nM

SMILES: Nc1ccccc1S(=O)(=O)N1CCN(c2ccc(C(O)(C(F)(F)F)C(F)(F)F)cc2)CC1 [Example 165, 2-(4-(4-(2-aminophenylsulfonyl)piperazin-1-yl)phenyl)-1,1,1,3,3,3-hexafluoro-2-propanol]
IC50 [2, 5]: 298 nM
EC50 [1]: 552 nM

SMILES: Nc1ccc(S(=O)(=O)N2CCN(c3ccc(C(O)(C(F)(F)F)C(F)(F)F)cc3)CC2)c(N)c1 [Example 261, 2-(4-(4-((2,4-diaminophenyl)sulfonyl)-1-piperazinyl)phenyl)-1,1,1,3,3,3-hexafluoro-2-propanol]
IC50 (GK-GKRP [3]): 277 nM

SMILES: Nc1ncc(S(=O)(=O)N2CCN(c3ccc(C(O)(C(F)(F)F)C(F)(F)F)cc3)CC2)cc1F [Example 97, 2-(4-(4-((6-amino-5-fluoro-3-pyridinyl)sulfonyl)-1-piperazinyl)phenyl)-1,1,1,3,3,3-hexafluoro-2-propanol]
EC50 [1]: 299 nM

SMILES: Nc1ccc(S(=O)(=O)N2CCN(c3ccc(C(O)(C(F)(F)F)C(F)(F)F)cc3)CC2)cn1 [Example 91, 2-(4-(4-((6-amino-3-pyridinyl)sulfonyl)-1-piperazinyl)phenyl)-1,1,1,3,3,3-hexafluoro-2-propanol]
EC50 [1]: 142 nM

SMILES: O=S(=O)(c1cccc(O)c1)N1CCN(c2ccc(C(O)(C(F)(F)F)C(F)(F)F)cc2)CC1 [Example 105, 3-((4-(4-(2,2,2-trifluoro-1-hydroxy-1-(trifluoromethyl)ethyl)phenyl)-1-piperazinyl)sulfonyl)phenol]
IC50 ([2]; GK-GKRP IC50 (Binding)): 949 nM

IC50 (GK-GKRP [3]): 591 nM
SMILES: Nc1ccncc1S(=O)(=O)N1CCN(c2ccc(C(O)(C(F)(F)F)C(F)(F)F)cc2)CC1 [Example 260, 2-(4-(4-((4-amino-3-pyridinyl)sulfonyl)-1-piperazinyl)phenyl)-1,1,1,3,3,3-hexafluoro-2-propanol]

SMILES: Nc1ccc(S(=O)(=O)N2CCN(c3ccc(C(O)(C(F)(F)F)C(F)(F)F)cc3)CC2)c(N)n1 [Example 166, 2-(4-(4-(2,6-diaminopyridin-3-ylsulfonyl)piperazin-1-yl)phenyl)-1,1,1,3,3,3-hexafluoro-2-propanol]
IC50 [2, 5]: 299 nM
EC50 [1]: 262 nM

SMILES: CC#CC1CN(S(=O)(=O)c2cccs2)CCN1c1ncc(C(C)(O)C(F)(F)F)cn1 (mixture of isomers)
IC50 (GK-GKRP [3]): 19 nM
EC50 (GK-GKRP [4]): 50 nM

Source: US8431563B2 (priority 2010, dated 2013)
